Test results published in paper PMC6468047, “Cannabinoid CB1 and CB2 Receptor-Mediated Arrestin Translocation: Species, Subtype, and Agonist-Dependence” (Frontiers in Pharmacology, 2019).

What was measured:
[1] = target: human vasopressin receptor 2 (3HA-hV2R) (human) (UniProt P30518)
[2] = target: human vasopressin receptor 2 (3HA-hV2R) (human) (UniProt P30518); remark: listed apart in the source
[3] = target: human vasopressin receptor 2 (3HA-hV2R) (human) (UniProt P30518); remark: listed apart in the source

Substance: Arginine vasopressin (peptide)
- logEC50 of AVP for bβ-arrestin-1 translocation to the plasma membrane in cells expressing V2R (BRET, AUC of 25 min) [1]: -8.24 log M
- logEC50 of AVP for bβ-arrestin-2 translocation to the plasma membrane in cells expressing V2R (BRET, AUC of 25 min) [2]: -8.3 log M
- logEC50 of AVP for hβ-arrestin-1 translocation to the plasma membrane in cells expressing V2R (BRET, AUC of 25 min) [3]: -8.33 log M
